IL2 activator: IL-2 activation; IL-2 activation reporter assay, cell-based qHTS; stimulated with anti-CD3/CD4/CD28 beads; in transgenic mouse T cells; activation, % (series mostly up to about 46 µM); actives 0.065% (n = 360,000); AID 652025; in the data active = activation above about 50%; inconclusive = mostly about 30% to 49%; also: 0% is about no effect
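Readout: EGFP and DsRed signals by fluorescent plate cytometry. Unstimulated transgenic mouse T cells received compound 60 min before antibody-bead stimulation, then incubated 18 h at 37 degrees C.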
RXFP1 agonist: activates the human relaxin receptor RXFP1. AID 2676. Potency, µM (titrated, usually from 57.5 µM), for inactives: at the top dose activation, usual class: activators. HEK293T-RXFP1 cAMP TR-FRET, 30 min; response scale: percent of porcine relaxin response, buffer zero. actives 0.3% (n = 370,000). Q9HBX9; also: potency is read from the fitted curve at half-maximal effect; % is scaled to controls: 0 for no effect and ±100 for the full control effect; nearly all actives have a fitted effect of over 60% in size
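cAMP rise read by TR-FRET after 30 min, 37C compound exposure (up to 58 uM) in RXFP1-transfected HEK293 cells with Ro 20174 present. EC50 from Hill-equation fits, with 29 nM porcine relaxin as 100% and buffer as basal.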
TCR activator: activators of T cell receptors; primary human leukocytes, anti-CD3, IL-2 HTRF, 48 h; Potency, µM (top dose mostly 9.22 µM), without a hit: at the highest dose activation of IL-2 secretion, hits mostly activators; 330,000 tested, under 10 active; also: % of control where 0% means no effect
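IL-2 release read by HTRF sandwich (Eu cryptate donor, d2 acceptor, 665 nm emission) after 48 hr exposure of primary human leukocytes to compound together with anti-CD3 beads in the absence of co-stimulatory signals.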
RXFP1 antag: RXFP1 (human) relaxin receptor antagonism. Q9HBX9. HEK293-RXFP1, relaxin-stimulated cAMP HTRF, 30 min; active compounds read low. activity change, negative = inhibition, % at 57.5 µM. actives 0.59% (n = 350,000);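 active = activity change of -60% or lower, but not beyond a set lower limit; inconclusive = change between -60% and -40%, or beyond the set limit; inactive = change above -40%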; also: % is scaled to controls: 0 for no effect and ±100 for the full control effect
PINK1 modulator: modulators of PINK1 expression. Potency, µM (series often up to 76.6 µM), without a hit: at the highest dose activation (PINK1 increase), most hits filed as activators. AID 624263. PINK1 immunofluorescence, high-content cytometry, 24 h. actives 0.2% (n = 410,000); active = well fitted activation curve with a large enough effect; inconclusive = small, poorly fitted or top-dose-only effect; cell line not stated here; also: potency is read from the fitted curve at half-maximal effect; % of control where 0% means no effect; nearly all actives have a fitted effect of over 65% in size
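Decision-based qHTS: stable cells, 24 h exposure to five compound concentrations, CCCP as control. Fixed cells stained for PINK1 plus nuclear, mitochondrial and cell markers, cytometer read.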
miR-21 reporter: raises the signal of a miR-21 reporter; 340,000 tested, under 10 active; HeLa miR-21 FLuc reporter, luciferase, 48 h; Potency, µM (highest dose often 38.3 µM), without a hit: top-dose reporter change, positive = more light; active = well fitted rising curve with a large enough effect; inconclusive = small, poorly fitted or top-dose-only effect; inactive = no such curve, though single readings can be large or run the other way;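 also: % of control where 0% means no effect; miR-21 action dims this reporter so a rising signal means less miR-21 action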
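Using DMEM plus 10% FBS, HeLa miR-21-FLuc cells are incubated with test compounds (final up to about 40uM) for 48 hours; firefly luciferase signal is then imaged following reagent-mediated lysis.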
* marks the source's active call; other numbers are inactive results; ? = inconclusive; / = no result; ! = repeats disagree; [ ] = dose if it differs, or a comment. Hits are enriched below; roughly 0.78% of the tested compounds scored in any of these assays. Unless noted, calls follow the shape of the dose curve; as a rule, active = well fitted curve in the direction sought with a large enough effect; inconclusive = small, poorly fitted or top-dose-only effect, or another doubt; inactive = no such curve, though single readings can be large; an effect the other way counts as inactive or inconclusive.

item	IL2 activator	RXFP1 agonist	TCR activator	RXFP1 antag	PINK1 modulator	miR-21 reporter	SMILES
1	157*	4%	6%[46.1 µM]	-19	?	-31%	O=C1N/C(=C/c2ccc(N3CCCC3)cc2)C(=O)N1c1ccccc1
2	/	/	/	9	/	/	N#Cc1cc(NC(=O)C(=O)O)c(Cl)c(NC(=O)C(=O)O)c1
3	/	/	/	-74*	/	/	Nc1nnnn1-c1ccccc1
4	/	/	/	/	1%	/	COc1ccc(OC)c(-c2cc(Cl)c3c(c2)CC(CNC(=O)C(C)N2CCOCC2)O3)c1 (stereo not given)
5	0	3%	?	-92*	?	?	CN(C)c1ccc(/C=C/c2ccc3ccccc3[n+]2C)cc1
6	-8	-9%	17%	?	8.9µM*!	?	CN(C)c1ccc(/C=C/c2ccc3c4ccccc4ccc3[n+]2-c2ccccc2)cc1
7	/	/	/	/	45µM*	/	CN(C)c1ccc(/C=C/c2c[n+](C)cc3ccccc23)cc1
8	/	/	/	/	0%	/	CN(C)c1ccc(/C=C/c2nccc3ccccc23)cc1
9	/	/	/	/	0%	/	CN(C)c1ccc(/C=C/c2cncc3ccccc23)cc1
10	/	/	/	-18	/	/	CCCCOC(=O)CCCCCCCCC(=O)OCCCC
11	-3	-1%	-12%	8	0%	2%	Cc1ccc(C(=O)C2=C(O)C(=O)N(Cc3cccnc3)C2c2ccc(OC(C)C)cc2)o1 (stereo not given)
12	1	16µM*	-8%	20	/	-14%	Cc1ccc(C(=O)C2=C(O)C(=O)N(CCCn3ccnc3)C2c2ccc(OC(C)C)cc2)o1 (stereo not given)
13	0	1%	7%	-75*	2%	-50%	CCOc1cc(/C=N/Nc2cccc(C(=O)O)c2)ccc1OC(=O)c1ccccc1
14	-4	3%	5%	-93*	3%	-5%	CCOc1cc(/C=N/NC(=O)c2ccccn2)ccc1OC(=O)c1ccc(F)cc1
15	-3	/	/	0	2%	/	COc1cc(C=NNc2ccccc2)ccc1OC(=O)c1ccccc1
16	-4	/	-3%	/	25µM*	/	Cc1ccc2nc(-c3cccc(SC4CCCCC4)c3)c(NCc3ccccc3)n2c1
17	-2	-4%	-2%	15	5%[38.3 µM]	-24%	Cc1ccn2c(NC(=O)c3ccccc3)c(-c3cccs3)nc2c1
18	-2	10%	2%	-77*	-1%	-57%	Cc1ccn2c(NCc3ccccc3)c(-c3cccs3)nc2c1
19	0	/	-10%	/	?	/	c1ccc(CNc2c(-c3cccc(SC4CCCCC4)c3)nc3ccccn23)cc1
20	-1	/	-138%	/	25µM*	/	Cc1ccn2c(NCc3ccccc3)c(-c3cccc(SC4CCCCC4)c3)nc2c1

Fetched one by one from the list above (7):
item	IL2 activator	RXFP1 agonist	TCR activator	RXFP1 antag	PINK1 modulator	miR-21 reporter	SMILES
11	-3	-1%	-12%	8	0%	2%	Cc1ccc(C(=O)C2=C(O)C(=O)N(Cc3cccnc3)C2c2ccc(OC(C)C)cc2)o1 (stereo not given)
6	-8	-9%	17%	?	8.9µM*!	?	CN(C)c1ccc(/C=C/c2ccc3c4ccccc4ccc3[n+]2-c2ccccc2)cc1
7	/	/	/	/	45µM*	/	CN(C)c1ccc(/C=C/c2c[n+](C)cc3ccccc23)cc1
4	/	/	/	/	1%	/	COc1ccc(OC)c(-c2cc(Cl)c3c(c2)CC(CNC(=O)C(C)N2CCOCC2)O3)c1 (stereo not given)
17	-2	-4%	-2%	15	5%[38.3 µM]	-24%	Cc1ccn2c(NC(=O)c3ccccc3)c(-c3cccs3)nc2c1
10	/	/	/	-18	/	/	CCCCOC(=O)CCCCCCCCC(=O)OCCCC
2	/	/	/	9	/	/	N#Cc1cc(NC(=O)C(=O)O)c(Cl)c(NC(=O)C(=O)O)c1

Going on with the list.
item	IL2 activator	RXFP1 agonist	TCR activator	RXFP1 antag	PINK1 modulator	miR-21 reporter	SMILES
21	/	/	/	/	-1%	/	OC1(c2cccnc2)CCN(Cc2ccc3c(c2)CN(Cc2ccc4nsnc4c2)CCO3)CC1
22	/	/	/	11	/	/	O=c1[nH]c2ccccc2c(=O)n1CCCl
23	/	/	/	/	-1%	/	COc1ccccc1CCc1nc2ccccc2n1C1CCN(C(=O)c2cc(C)nn2C)CC1
24	0	20%	-3%	/	40µM*	/	COc1cccc(C#Cc2c(C=O)n(C)c3ccccc23)c1
25	0	7%	-3%	1	0%	-59%	CCOC(=O)C1CCN(C(=O)c2cc3c(ccc4ccccc43)o2)CC1
26	1	1%	3%	-60*	0%	-31%	CC1CCN(C(=O)c2cc3c(ccc4ccccc43)o2)CC1
27	190*	3%	1%[46.1 µM]	5	13%	-23%	CC/C(=N/Nc1cccc(C)c1)c1cnnc(SC)n1
28	0	3%	1%	-112*	0%	-9%	O=c1[nH]cnc2c1c(-c1ccccc1)cn2-c1cccc(Cl)c1
29	-2	1%	5%[46.1 µM]	-15	-3%	1%	COc1ccc(-n2cc(-c3ccccc3)c3c(=O)[nH]cnc32)cc1
30	-6	/	0%	-91*	-4%	/	O=C(C(Br)=Cc1ccccc1)c1ccccc1
31	-1	3%	3%	-25	40µM*	25%	Cc1ccc(S(=O)(=O)NC(C)(C)CN2CCC(Cc3ccccc3)CC2)cc1
32	/	/	/	/	-1%	/	O=C(c1cscn1)N1CCOc2ccc(CN3CCC(Oc4cccnc4)CC3)cc2C1
33	-2	-1%	/	3	11µM*	20%	COc1cc(C2=NOC(C(=O)NCc3ccco3)C2)cc(OC)c1OC (stereo not given)
34	/	/	/	/	0%	/	CC(=O)Nc1cc(C(=O)N2CC3(C)CC2CC(C)(C)C3)cc2ncn(CCc3ccccn3)c12 (stereo not given)
35	1	13µM*	3%	8	3%	-1%	CCN(CC)S(=O)(=O)c1ccc2c(c1)N(CC(=O)Nc1cccnc1Cl)C(=O)CO2
36	/	-1%	/	3	1%	-2%	CCN(CC)S(=O)(=O)c1ccc2c(c1)N(CC(=O)Nc1c(C)cccc1C)C(=O)CO2
37	-3	25µM*	1%	43	2%	-4%	CCN(CC)S(=O)(=O)c1ccc2c(c1)N(CC(=O)NCc1ccccn1)C(=O)CO2
38	0	6%	-4%	-68*	2%	-6%	CCOc1ccc(S(=O)(=O)N(C(=O)c2ccco2)c2cc3sc(=O)oc3c3ccccc23)cc1
39	-1	0%	-9%	?	0%	-1%	COc1ccc(S(=O)(=O)N(C(=O)c2ccco2)c2cc3sc(=O)oc3c3ccccc23)cc1
40	-1	4%	7%[46.1 µM]	-79*	-1%	12%	Cc1ccc(S(=O)(=O)N(C(=O)c2ccco2)c2cc3sc(=O)oc3c3ccccc23)cc1
41	/	/	/	/	-1%	/	Cc1ccc2[nH]c(C(=O)N3CCc4c(cnc(C)c4CNC(=O)c4ccccc4F)C3)cc2c1
42	/	/	/	/	-1%	/	COC(=O)[C@@H]1CCCN1Cc1ccc2c(c1)CN(Cc1ccc(OC)c(C)c1)CCO2
43	1	0%	10%[46.1 µM]	0	-2%	9%	N#CC1(C#N)C(C(N)=O)C1c1ccccc1 (stereo not given)
44	4	-1%	1%[46.1 µM]	-8	13µM*	2%	CN1C=CC2=C(C#N)C(N)C(C#N)(C#N)[C@H](c3ccccc3)[C@H]2C1 (stereo not given in full)
45	0	0%	2%	-7	1%	2%	Cn1c(CNC(=O)c2ccco2)nnc1SCC(=O)c1ccccc1
46	0	-2%	1%	-94*	4%	1%	Cn1c(CNC(=O)c2ccco2)nnc1SCC(=O)N1CCN(c2ccccc2F)CC1
47	0	/	-3%	/	-1%	/	O=C(Nc1ccc(C(=O)N2CCOCC2)cc1)c1ccccc1
48	-3	6%	5%	-76*	2%	9%	CC(C)(C)c1ccc(C(=O)Nc2ccc(C(=O)N3CCOCC3)cc2)cc1
